From patent US8298766B2, “Fluorescent dyes, methods of synthesis and applications thereof” (priority 2010, dated 2012)

The chains behind the UniProt entries cited, without tags or fusion partners. Residues count along the entry.
UniProt P02769, 25-607: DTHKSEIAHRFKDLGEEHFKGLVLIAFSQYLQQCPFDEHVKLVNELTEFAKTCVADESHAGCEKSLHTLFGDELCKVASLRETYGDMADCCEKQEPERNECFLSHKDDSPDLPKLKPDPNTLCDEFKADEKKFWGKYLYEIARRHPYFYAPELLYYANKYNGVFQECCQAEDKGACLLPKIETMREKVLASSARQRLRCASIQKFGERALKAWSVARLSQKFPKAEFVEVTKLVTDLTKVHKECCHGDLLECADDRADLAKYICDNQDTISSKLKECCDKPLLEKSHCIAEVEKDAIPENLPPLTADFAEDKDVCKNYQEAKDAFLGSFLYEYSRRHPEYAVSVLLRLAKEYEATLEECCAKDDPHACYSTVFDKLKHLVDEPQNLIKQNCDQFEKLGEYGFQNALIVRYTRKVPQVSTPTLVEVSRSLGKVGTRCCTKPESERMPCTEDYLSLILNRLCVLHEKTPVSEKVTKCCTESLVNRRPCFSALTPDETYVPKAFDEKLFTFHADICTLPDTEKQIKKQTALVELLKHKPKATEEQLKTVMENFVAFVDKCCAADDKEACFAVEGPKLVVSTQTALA

Target: bovine serum albumin (Bos taurus, UniProt P02769)
Test: Fluorescence intensity before and after addition of bovine serum albumin
Assay type: binding
Conditions: pH 7.0, 10 mM Tris-HCl buffer; dye 1 μM; bovine serum albumin 40 μg/mL
Description: The ordinate is the fluorescence increasing fold. The equipment used is a spectrofluorophotometer (FP-6500). […] The concentrations of calf thymus DNA and bovine serum albumin are both 40 μg/mL.
Finally each mixture of dye and BSA solution is diluted with pH 7.0, 10 mM Tris-HCl buffer solution to 3 mL and the fluorescence emission spectra are determined respectively after stabilization. […] Finally each mixture of dye and calf thymus DNA solution is diluted with pH 7.0, 10 mM Tris-HCl buffer solution to 3 mL and the fluorescence emission spectra are determined respectively after stabilization. […] The equipment used is a spectrofluorophotometer (FP-6500).

fluorescence intensity increase with BSA solution: 5.5 fold
Structure (SMILES): CCN1C=C/C(=C\C=C\c2sc3ccccc3[n+]2CC)c2ccccc21 [M1, reference compound]
